# Measured values from the supplement of paper PMC8728848.
# The full list was thinned out, with the strongest signals kept by preference.
# Tests used:
# Assay in all cases: glycan array binding signal (z-score within array); higher = stronger binding
# Conditions in all cases: glycan notation: IUPAC condensed, linker removed
# [1] = molecular target: Fuc(a1-2)[GalNAc(a1-3)]Gal(b1-4)Glc
# [2] = molecular target: Fuc(a1-2)[GalNAc(a1-3)]Gal(b1-4)GlcNAc
# [3] = molecular target: Fuc(a1-3)[Gal(b1-4)]GlcNAc6S
# Gal(a1-3)Gal(b1-3)Glc = molecular target: Gal(a1-3)Gal(b1-3)Glc
# Gal(a1-6)Glc = molecular target: Gal(a1-6)Glc
# Gal(b1-3)Gal = molecular target: Gal(b1-3)Gal
# [4] = molecular target: Gal(b1-3)GalNAc(b1-3)Gal(b1-4)GlcNAc
# [5] = molecular target: Gal(b1-3)GlcNAc(b1-3)Gal(b1-3)GlcNAc
# [6] = molecular target: Gal(b1-3)[GlcNAc(b1-6)]GlcNAc
# Gal(b1-4)Glc6S = molecular target: Gal(b1-4)Glc6S
# [7] = molecular target: Gal(b1-4)GlcNAc(b1-3)[Gal(b1-4)GlcNAc(b1-6)]GalNAc
# Gal3S(b1-4)Glc6S = molecular target: Gal3S(b1-4)Glc6S
# Gal3S(b1-4)GlcNAc6S = molecular target: Gal3S(b1-4)GlcNAc6S
# Gal3S6S(b1-4)GlcNAc6S = molecular target: Gal3S6S(b1-4)GlcNAc6S
# Gal4S6S(b1-4)GlcNAc = molecular target: Gal4S6S(b1-4)GlcNAc
# GlcNAc(b1-3)GalNAc = molecular target: GlcNAc(b1-3)GalNAc
# [8] = molecular target: GlcNAc(b1-3)[GlcNAc(b1-4)][GlcNAc(b1-6)]GlcNAc
# Man(a1-2)Man(a1-3)Man = molecular target: Man(a1-2)Man(a1-3)Man
# [9] = molecular target: Neu5Ac(a2-3)Gal(b1-3)GalNAc
# Neu5Ac(a2-3)GalNAc = molecular target: Neu5Ac(a2-3)GalNAc
binder,measurement,setting,value
"TLR-2 (Homo sapiens), O60603 (protein) ESSNQASLSCDRNGICKGSSGSLNSIPSGLTEAVKSLDLSNNRITYISNSDLQRCVNLQALVLTSNGINTIEEDSFSSLGSLEHLDLSYNYLSNLSSSWFKPLSSLTFLNLLGNPYKTLGETSLFSHLTKLQILRVGNMDTFTKIQRKDFAGLTFLEELEIDASDLQSYEPKSLKSIQNVSHLILHMKQHILLLEIFVDVTSSVECLELRDTDLDTFHFSELSTGETNSLIKKFTFRNVKITDESLFQVMKLLNQISGLLELEFDDCTLNGVGNFRASDNDRVIDPGKVETLTIRRLHIPRFYLFYDLSTLYSLTERVKRITVENSKVFLVPCLLSQHLKSLEYLDLSENLMVEEYLKNSACEDAWPSLQTLILRQNHLASLEKTGETLLTLKNLTNIDISKNSFHSMPETCQWPEKMKYLNLSSTRIHSVTGCIPKTLEILDVSNNNLNLFSLNLPQLKELYISRNKLMTLPDASLLPMLLVLKISRNAITTFSKEQLDSFHTLKTLEAGGNNFICSCEFLSFTQEQQALAKVLIDWPANYLCDSPSHVRGQQVQDVRLSVSECHRT",glycan array binding signal (z-score),[1],-0.171
same,glycan array binding signal (z-score),[2],-0.641
same,glycan array binding signal (z-score),[3],1.73
same,glycan array binding signal (z-score),Gal(a1-3)Gal(b1-3)Glc,0.332
same,glycan array binding signal (z-score),Gal(a1-6)Glc,0.107
same,glycan array binding signal (z-score),Gal(b1-3)Gal,-0.373
same,glycan array binding signal (z-score),[4],0.222
same,glycan array binding signal (z-score),[5],2.09
same,glycan array binding signal (z-score),[6],-0.901
same,glycan array binding signal (z-score),Gal(b1-4)Glc6S,0.191
same,glycan array binding signal (z-score),[7],-0.313
same,glycan array binding signal (z-score),Gal3S(b1-4)Glc6S,0.975
same,glycan array binding signal (z-score),Gal3S(b1-4)GlcNAc6S,1.8
same,glycan array binding signal (z-score),Gal3S6S(b1-4)GlcNAc6S,2.11
same,glycan array binding signal (z-score),Gal4S6S(b1-4)GlcNAc,1.75
same,glycan array binding signal (z-score),GlcNAc(b1-3)GalNAc,0.492
same,glycan array binding signal (z-score),[8],-0.43
same,glycan array binding signal (z-score),Man(a1-2)Man(a1-3)Man,-0.592
same,glycan array binding signal (z-score),[9],-0.699
same,glycan array binding signal (z-score),Neu5Ac(a2-3)GalNAc,-0.527
